Experimental data from ChEMBL document CHEMBL1150972, “Biochemical and cellular effects of c-Src kinase-selective pyrido[2, 3-d]pyrimidine tyrosine kinase inhibitors” (Biochem Pharmacol, 2000).

The chains behind the UniProt entries cited, without tags or fusion partners.
UniProt P11362, whole entry: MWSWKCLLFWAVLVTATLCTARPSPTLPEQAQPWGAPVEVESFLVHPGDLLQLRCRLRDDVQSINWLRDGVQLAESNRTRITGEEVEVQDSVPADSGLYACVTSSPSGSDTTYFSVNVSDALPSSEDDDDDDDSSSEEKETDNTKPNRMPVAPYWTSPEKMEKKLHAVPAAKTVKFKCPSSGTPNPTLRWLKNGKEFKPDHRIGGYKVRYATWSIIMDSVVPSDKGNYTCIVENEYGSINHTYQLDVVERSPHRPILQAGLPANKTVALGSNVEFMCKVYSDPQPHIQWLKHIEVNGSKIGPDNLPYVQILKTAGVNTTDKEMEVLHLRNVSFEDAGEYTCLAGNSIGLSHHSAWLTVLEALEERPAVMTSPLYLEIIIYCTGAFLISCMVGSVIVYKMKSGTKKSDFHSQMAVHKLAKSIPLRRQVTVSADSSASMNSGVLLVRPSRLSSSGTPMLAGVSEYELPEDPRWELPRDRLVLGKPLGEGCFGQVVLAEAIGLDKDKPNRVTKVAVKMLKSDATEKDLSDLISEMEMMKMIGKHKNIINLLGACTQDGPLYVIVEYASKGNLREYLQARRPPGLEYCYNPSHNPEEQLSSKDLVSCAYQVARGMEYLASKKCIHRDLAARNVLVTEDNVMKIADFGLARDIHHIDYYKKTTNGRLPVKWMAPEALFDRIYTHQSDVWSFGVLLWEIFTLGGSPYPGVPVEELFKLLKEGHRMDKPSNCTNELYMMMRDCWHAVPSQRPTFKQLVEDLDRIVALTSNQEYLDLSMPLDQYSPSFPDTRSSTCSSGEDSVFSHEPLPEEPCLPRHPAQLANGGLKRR

Tests used:
HCT-8 = assay: Inhibition of HCT-8 clonogenic growth in soft agar with pretreatment; assay type: functional, cell-based; conditions: Homo sapiens
[1] = target: Fibroblast growth factor receptor 1 (Homo sapiens, UniProt P11362); assay: Inhibition of bFGFR

- pIC50 (HCT-8): 6.05
- pIC50 [1]: 6.03
Compound: Cn1c(=O)c(-c2c(Cl)cccc2Cl)cc2cnc(Nc3ccc(F)cc3)nc21

pIC50: −log10 of the molar value.
